# Patent US8536164B2, “Fused pyridine compounds as casein kinase inhibitors” (Pfizer Inc., priority 2010, dated 2013)
# By UniProt entry, the sequences of proteins in these tests, tags left out. Where a name states a change or a piece, a line headed by the entry shows the natural chain unless it says otherwise.
# UniProt P48730: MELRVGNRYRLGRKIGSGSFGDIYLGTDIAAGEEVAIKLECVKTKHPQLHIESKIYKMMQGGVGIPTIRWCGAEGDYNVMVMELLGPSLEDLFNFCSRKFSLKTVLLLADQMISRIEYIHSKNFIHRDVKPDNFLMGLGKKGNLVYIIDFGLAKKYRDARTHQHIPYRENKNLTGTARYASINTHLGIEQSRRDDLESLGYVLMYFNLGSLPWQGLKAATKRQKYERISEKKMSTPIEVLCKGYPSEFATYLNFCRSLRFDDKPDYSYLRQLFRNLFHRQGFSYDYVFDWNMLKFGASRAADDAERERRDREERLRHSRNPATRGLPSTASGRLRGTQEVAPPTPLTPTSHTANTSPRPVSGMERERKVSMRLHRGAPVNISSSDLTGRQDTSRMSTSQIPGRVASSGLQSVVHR
# UniProt P49674: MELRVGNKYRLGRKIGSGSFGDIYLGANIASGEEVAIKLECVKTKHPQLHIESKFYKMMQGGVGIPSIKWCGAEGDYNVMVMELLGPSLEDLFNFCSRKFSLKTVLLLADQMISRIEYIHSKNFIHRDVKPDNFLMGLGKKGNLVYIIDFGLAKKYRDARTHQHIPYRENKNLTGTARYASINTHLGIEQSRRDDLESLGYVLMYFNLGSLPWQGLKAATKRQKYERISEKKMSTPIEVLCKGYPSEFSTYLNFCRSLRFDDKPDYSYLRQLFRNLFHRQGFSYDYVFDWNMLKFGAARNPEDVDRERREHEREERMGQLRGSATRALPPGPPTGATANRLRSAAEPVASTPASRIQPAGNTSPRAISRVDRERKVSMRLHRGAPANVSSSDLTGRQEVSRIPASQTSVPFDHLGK
# How the values were obtained:
# [1] = target: T1, human CK1δ (Cos 7 cells cotransfected with mouse Per3-GFP) (Homo sapiens, UniProt P48730); assay: CK1 WCA HCS nuclear translocation assay (CK1δ); type: cell-based; conditions: inhibition of mPer3-GFP translocation to the nucleus, overnight exposure, read-out: CK1 δ WCA EC50
# T1 construct: His tag of the vector pcDNA4/hisA (only the vector name is printed); expressed in transfected cells; host or cells: Cos 7 cells
# Method: (§1) CK1 WCA HCS Nuclear Translocation Assay.
# (§2) Cos 7 cells were maintained at 37° C. in 5% CO2 in Dulbecco's Modified Eagle Medium (Gibco 11995) supplemented with 10% fetal bovine serum. Log-phase cells were dislodged with 5 min treatment of TrypLE Express (Gibco 12605) and viable cell count was determined with Cedex cell counter. Cells were diluted in DMEM medium to a density of 1.5e5 viable cells/mL in ⅔ of the final volume of final transfected cell mix. Cells were cotransfected with two plasmid DNAs, mouse Per3-GFP (green fluorescent protein) in pd2EGFP-N1 vector and human CKI in pcDNA4/hisA vector (for CK1Epsilon at a ratio of 1:5 respectively; for CK1δ at a ratio of 1:11 respectively), using Lipofectamine 2000 reagent (Invitrogen) according to the manufacturer's recommendations. The transfection mix contained approximately 0.83 μg/mL of DNA and 6 μL/mL of Lipofectamine 2000, in a total of ⅓ of the final transfection volume in Opti-MEM I medium (Invitrogen). […]
# (§3) Compounds were solubilized in 100% DMSO, diluted with Opti-MEM I to a 4× concentration before addition to plated cells. […] CKIδ dependent nuclear localization of the GFP-tagged mPer3 protein was quantitated using the Cellomics ArrayScan VTI system utilizing the Cytoplasm to Nucleus translocation bioapplication to calculate the Nuclear-Cytoplasmic Intensity difference. […]
# [2] = target: T2, human CK1Epsilon (Cos 7 cells cotransfected with mouse Per3-GFP) (Homo sapiens, UniProt P49674); assay: CK1 WCA HCS nuclear translocation assay (CK1ε); type: cell-based; conditions: inhibition of mPer3-GFP translocation to the nucleus, overnight exposure, read-out: CK1 ε WCA EC50
# T2 construct: His tag of the vector pcDNA4/hisA (only the vector name is printed); expressed in transfected cells; host or cells: Cos 7 cells
# Method: as §1, §2, §3
# CKIδ wild type = CKIδ wild type (Homo sapiens, UniProt P48730); assay: CK1δ kinase assay (Kinase-Glo); type: biochemical; conditions: 10 μM ATP, 2 nM CKIδ, 85 min at 25° C.; read-out: CK1 δ IC50
# Method: (§4) The CK1δ kinase assay was performed in a 40 μl final volume in buffer containing 50 mM Tris, pH 7.5, 10 mM MgCl2, 1 mM dithiothreitol, 100 μg/mL BSA with 10 μM ATP, 2 nM CKIδ wild type, and 42 μM peptide substrate PLSRTLpSVASLPGL (Flotow et al., 1990) in the presence of 1 μl of CKIδ inhibitor or 4% DMSO. The reaction was incubated for 85 min at 25° C.; detection was carried out as described for the Kinase-Glo Assay (Promega). Luminescent output was measured on the Perkin Elmer Envision plate reader (PerkinElmer, Waltham, Mass.).
# CKI ε wild type = CKI ε wild type (Homo sapiens, UniProt P49674); assay: CK1ε kinase assay (Kinase-Glo); type: biochemical; conditions: 10 μM ATP, 2.5 nM CKI ε, 70 min at 25° C.; read-out: CK1 ε:IC50
# Method: as §4, with “The CK1ε” for “The CK1δ”, “a 40-μl” for “a 40 μl”, “ATP, 2.5” for “ATP, 2”, “nM CKI ε” for “nM CKIδ”, “of CKI ε” for “of CKIδ”, “for 70” for “for 85”
smiles,measurement,setting,value
"CN1Cc2nccc(-c3cn(C)nc3-c3ccc(F)cc3)c2C1=O [Example 2, 4-[3-(4-fluorophenyl)-1-methyl-1H-pyrazol-4-yl]-6-methyl-6,7-dihydro-5H-pyrrolo[3,4-b]pyridin-5-one]",EC50,[1],52.6 nM
same,EC50,[2],313 nM
same,IC50,CKIδ wild type,7.9 nM
same,IC50,CKI ε wild type,35.5 nM
